# Experimental data reported in EP0354046A2, “Herbicidal method using bromoxynil” (MAY & BAKER LIMITED, priority 1988, dated 1990).
# Experiments:
# [1] = tested on: Echinochloa crus-galli; assay: Glasshouse experiment 2, percentage phytotoxicity after 19 days; assay type: in vivo; details: bromoxynil alone 35,70,140 g a.e./ha (r3-r5), 3 leaf growth stage
# Method: Agricultural surfactant-nonylphenol ethylene oxide condensate containing 9 moles ethylene oxide was added to all spray dilutions to give 0.2% v/v concentration.
# After spraying, the pots were arranged in randomised blocks in a glasshouse, watered as necessary, and assessed after 19 days for percentage phytotoxicity (reduction in green area compared with unsprayed plants) (0 = no effect; 100 = complete destruction).
# The results were then used to plot an isobole with a "one-sided effect" according to the methods of P.M.L. Tammes op.cit.
# [2] = tested on: maize var. Irla; assay: Glasshouse experiment 4, percentage phytotoxicity on crop after 11 days; details: for % crop phytotoxicity Maize (3-4 leaves): Compound (74 or 99) 0 g/ha
# Method: Agricultural surfactant ('Agral') was added to the spray dilutions to give 0.2%v/v concentration.
# After spraying the pots were arranged in randomised blocks in a glasshouse and water as necessary. After 11 days the plants were assessed for percentage phytotoxicity (reduction in green area compared with unsprayed plants (0 = no effect 100 = complete destruction).
# E = X + Y […] where E, X and Y are percentage phytotoxicity.
# The ED values were then used to plot an isobole for each mixture according to the method of P.M.L. Tammes op cit.
smiles,measurement,setting,value
"N#Cc1cc(Br)c(O)c(Br)c1 [Bromoxynil, 3,5-dibromo-4-hydroxybenzonitrile]",percentage phytotoxicity,[1],0
same,% crop phytotoxicity Maize (3-4 leaves),[2]; Bromoxynil 70 g/ha,0%
same,% crop phytotoxicity Maize (3-4 leaves),[2]; Bromoxynil 140 g/ha,0%
same,% crop phytotoxicity Maize (3-4 leaves),[2]; Bromoxynil 280 g/ha,0% and 1%
same,ED₂₀ crop phytotoxicity Maize (3-4 leaves),[2]; applied alone,ED₂₀(g/ha) >280

# Values joined by “and” are separate entries in the source; they are usually repeats but may differ in a detail not shown here. Identical values can stand only once.
